Source: paper PMC6359455, “Partial Solvation Parameters of Drugs as a New Thermodynamic Tool for Pharmaceutics” (Pharmaceutics, 2019)

Assay: Cohesive energy (solubility-parameter) components by the PSP/LSER method

COc1ccccc1OCCNCC(O)COc1cccc2[nH]c3ccccc3c12 (stereo not shown) [Carvedilol, carvedilol]
σtot (square root of total cohesive energy density, equivalent to δtot): 23.55 MPa^0.5
